{"source": "patent US9757354B2", "about": "(priority 2015, dated 2017)", "key": {"[1]": {"assay": "Dissolution rate and pH of sulfanegen salt solutions", "format": "physicochemical", "details": "aqueous amine solution added to sulfanegenic acid"}, "[2]": {"assay": "Stability of sulfanegen salts in solution and on storage", "details": "room temperature; thermal stability; unpublished results"}}, "data": [{"substance": "sulfanegen triethanolamine", "values": [{"measurement": "dissolution on in situ formation of the salt", "setting": "[1]", "value": "rapid dissolution"}, {"measurement": "shelf life", "setting": "[2]", "value": "< 6", "unit": "month"}]}]}
